Tested on: HBV (HBVcircle transfected HepaRG cells)
Assay: In vitro anti-HBV drug evaluation in HBVcircle transfected proliferating HepaRG cells
Format: cell-based
Conditions: 6 days
Procedure: X-TREMEGENE HP DNA transfection reagent (from Roche) was used for transfection. One day before transfection, cells were trypsinized and seeded onto plates, Cells were seeded at 0.8×10^5/well in 24 well plates for HepG2 and proliferation HepaRG cell line, and 3×10^5/well in 24 well plates for differentiated HepaRG cell line.
HBeAg or HBsAg were measured by using the HBeAg or HBsAg ELISA kit (from Autobio) according to the manufacturer's direction.
Next, the feasibility of evaluating anti-HBV drugs using HBVcircle system in cell culture models was assessed. HepG2 cells or proliferating HepaRG cells were transiently transfected with HBVcircle and then treated with indicated concentrations of ETV, HAP 12 (an HBV capsid assembly inhibitor, which belongs to heteroaryldihydropyrimidine (HAP) chemical series, and was published as Example 12 in Bourne et al., J Virol. October 2008; 82(20): 10262-10270) or Pegasys for 6 days. Supernatants were collected and HBsAg, HBeAg and albumin ELISA were performed. Cells were lysed and cell lysates were subjected to southern blot analysis for encapsidated HBV DNA detection, as well as western blot analysis for HBV capsid, HBc and beta-actin detection with specific antibodies respectively.

How did the HBeAg production turn out when pegylated interferon alpha-2a [Pegasys] was run?
Its HBeAg production is “inhibited dose dependently”.

And the HBsAg production?
Its HBsAg production is “inhibited dose dependently”.
